Biological target: alpha-1-anti-trypsin (A1AT), P01009

Amino acid sequences for entries named in this document (tags omitted).
alpha-1-anti-trypsin (A1AT), P01009, UniProt P01009, whole entry, looked up: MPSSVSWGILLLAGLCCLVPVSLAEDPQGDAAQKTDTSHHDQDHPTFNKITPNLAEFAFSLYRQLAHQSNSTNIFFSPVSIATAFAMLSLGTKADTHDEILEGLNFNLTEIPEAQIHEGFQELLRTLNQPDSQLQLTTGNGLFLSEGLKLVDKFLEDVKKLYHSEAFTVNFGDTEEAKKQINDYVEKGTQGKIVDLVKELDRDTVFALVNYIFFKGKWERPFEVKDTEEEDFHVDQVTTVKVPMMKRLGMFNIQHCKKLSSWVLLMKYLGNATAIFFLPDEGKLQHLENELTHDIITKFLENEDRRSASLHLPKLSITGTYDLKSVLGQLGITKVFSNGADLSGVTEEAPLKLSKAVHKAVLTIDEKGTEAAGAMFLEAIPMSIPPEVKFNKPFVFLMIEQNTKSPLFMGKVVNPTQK

B1: neutrophil elastase (ELANE) (protein)
chain: IVGGRRARPHAWPFMVSLQLRGGHFCGATLIAPNFVMSAAHCVANVNVRAVRVVLGAHNLSRREPTRQVFAVQRIFENGYDPVNLLNDIVILQLNGSATINANVQVAQLPAQGRRLGNGVQCLAMGWGLLGRNRGIASVLQELNVTVVTSLCRRSNVCTLVRGRQAGVCFGDSGSPLVCNGLIHGIASFVRGGCASGLYPDAFAPVAQFVNWIDSIIQ
For B1, the “ELANE catalytic activity (chromogenic substrate activity assay)” value was “inactivation was confirmed with a chromogenic substrate activity assay”.

Reference: patent publication US20260207707A1 (UNIVERSITY OF CHICAGO, published 2026)
